Source: PubChem BioAssay (NCI)
Some results for these compounds are left out of this collection, so the calls shown say nothing about other tests.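 Compound exposure: 48 hours, 5 concentrations, 96-well plates. Abbreviation: GI50, concentration required for 50% inhibition of growth.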

What was measured:
Assay in all cases: inhibition of tumour cell growth, NCI panel, 48 h; in the data active means GI50 below about 0.43 µM; inactive means the rest
[1] = tested on: U251 CNS
[2] = tested on: SF-295 CNS
[3] = tested on: SF-539 CNS
[4] = tested on: RPMI-8226 leukemia
[5] = tested on: TK-10 renal
[6] = tested on: HCT-15 colon
[7] = tested on: IGROV1 ovarian
[8] = tested on: A498 renal
[9] = tested on: SK-MEL-28 melanoma
[10] = tested on: OVCAR-8 ovarian
[11] = tested on: LOX IMVI melanoma
[12] = tested on: SK-MEL-2 melanoma
[13] = tested on: HOP-62 NSCLC
[14] = tested on: NCI-H522 lung
[15] = tested on: HOP-92 NSCLC
[16] = tested on: CAKI-1 renal
[17] = tested on: SN12C renal
[18] = tested on: MDA-MB-435
[19] = tested on: MDA-N
[20] = tested on: OVCAR-5 ovarian
[21] = tested on: ACHN renal
[22] = tested on: T-47D breast
[23] = tested on: NCI-H460 lung
[24] = tested on: OVCAR-4 ovarian
[25] = tested on: SNB-19 CNS
[26] = tested on: K-562 leukemia
[27] = tested on: 786-0 renal
[28] = tested on: NCI/ADR-RES ovarian
[29] = tested on: PC-3 prostate
[30] = tested on: SK-MEL-5 melanoma
[31] = tested on: A549 NSCLC
[32] = tested on: MALME-3M melanoma
[33] = tested on: BT-549 breast
[34] = tested on: NCI-H23 lung
[35] = tested on: KM12 colon
[36] = tested on: M14 melanoma
[37] = tested on: HL-60(TB) leukemia
[38] = tested on: HT29 colon
[39] = tested on: HS 578T breast
[40] = tested on: SF-268 CNS
[41] = tested on: MDA-MB-231 breast
[42] = tested on: EKVX NSCLC
[43] = tested on: RXF 393 renal
[44] = tested on: SW-620 colon
[45] = tested on: SR leukemia
[46] = tested on: MOLT-4 leukemia
[47] = tested on: UO-31 renal
[48] = tested on: CCRF-CEM leukemia
[49] = tested on: UACC-257 melanoma
[50] = tested on: COLO 205 colon
[51] = tested on: UACC-62 melanoma
[52] = tested on: DU-145 prostate
[53] = tested on: NCI-H226 lung
[54] = tested on: HCT-116 colon
[55] = tested on: MCF7 breast
[56] = tested on: SNB-75 CNS
[57] = tested on: SK-OV-3 ovarian
[58] = tested on: OVCAR-3 ovarian

Measured: GI50

CCC1C(OC(=O)C(O)(c2ccccc2)c2ccccc2)C(C)(C)C1N1CCCCC1 (stereo not drawn)
inactive: [1] 81.9 µM | [2] 29.4 µM | [3] 60.2 µM | [4] 34.4 µM | [5] > 100 µM | [6] 43.5 µM | [7] 97.6 µM | [8] 75.5 µM | [9] 43.4 µM | [10] 88.7 µM | [11] 30.6 µM | [12] 29.6 µM | [13] 36.4 µM | [14] 30.8 µM | [15] 34.2 µM | [16] > 100 µM | [17] 32.2 µM | [18] 47.6 µM | [19] 40.4 µM | [20] 52.1 µM | [21] 80.8 µM | [22] 44.8 µM | [23] 42.8 µM | [24] > 100 µM | [25] 71.6 µM | [26] 44.1 µM | [27] 41.2 µM | [28] 60.5 µM | [29] 29.8 µM | [30] 17.7 µM | [31] 48.7 µM | [32] 23.2 µM | [33] 43.6 µM | [34] 51.7 µM | [35] 47 µM | [36] 15.7 µM | [37] 26.1 µM | [38] 16.2 µM | [39] 26.2 µM | [40] 69.8 µM | [41] > 100 µM | [42] 34.3 µM | [43] 31.8 µM | [44] 42.4 µM | [45] 52.6 µM | [46] 23.2 µM | [47] 42 µM | [48] 44.7 µM | [49] 30.2 µM | [50] 28.1 µM | [51] 55.5 µM | [52] > 100 µM | [53] 25.9 µM | [54] 35.1 µM | [55] 34.9 µM | [56] 92.8 µM | [57] 42.9 µM | [58] 96.6 µM
